Reference: patent US20020143062A1, “Method to incorporate N-(4-hydroxyphenyl) retinamide in liposomes” (Board of Regents, The University of Texas System, priority 2000, published 2002)

Columns and labels:
Experiment in all cases: NO production, nitrite (Table 10)
Format in all cases: cell-based
Conditions in all cases: 4HPR 0 μM, Herceptin +
MDA-MB-453 = system: MDA-MB-453
Description: (§1) Liposomal 4-HPR has been associated with the suppression of genes linked to ER-negative breast cancer such as the Her2/neu oncogene, and epidermal growth factor receptor (EGFR). Overexpression/amplification of the Her-2/neu oncogene has been associated with poor prognosis for breast cancer. Herceptin, is a biologic agent that targets the human epidermal growth factor receptor-2 (HER2), has been clinically proven in treating breast cancer. […] The data further indicate that by blocking or suppressing Her-2/neu expression in ER-negative breast cancer cells, induction of iNOS and it production of NO is increased thereby inducing growth inhibition and apoptosis in these cells.

BT-474 = system: BT-474
Description: as §1

SK-Br-3 = system: SK-Br-3
Description: as §1

Herceptin: monoclonal antibody that attaches itself to Her-2/neu
Nitrite (NO production) (MDA-MB-453): 28.5 ± 1.3 μM Nitrite /1 × 10^6 cells | Nitrite (NO production) (BT-474): 67.7 ± 0.3 μM Nitrite /1 × 10^6 cells | Nitrite (NO production) (SK-Br-3): 35.5 ± 1.2 μM Nitrite /1 × 10^6 cells
